Assay results taken from doi:10.1101/2023.12.06.570349v1 (biorxiv, 2023).

The chains behind the UniProt entries cited, without tags or fusion partners. Residues count along the entry.
UniProt Q9Y5N1, 1-415 isoform Q9Y5N1-7: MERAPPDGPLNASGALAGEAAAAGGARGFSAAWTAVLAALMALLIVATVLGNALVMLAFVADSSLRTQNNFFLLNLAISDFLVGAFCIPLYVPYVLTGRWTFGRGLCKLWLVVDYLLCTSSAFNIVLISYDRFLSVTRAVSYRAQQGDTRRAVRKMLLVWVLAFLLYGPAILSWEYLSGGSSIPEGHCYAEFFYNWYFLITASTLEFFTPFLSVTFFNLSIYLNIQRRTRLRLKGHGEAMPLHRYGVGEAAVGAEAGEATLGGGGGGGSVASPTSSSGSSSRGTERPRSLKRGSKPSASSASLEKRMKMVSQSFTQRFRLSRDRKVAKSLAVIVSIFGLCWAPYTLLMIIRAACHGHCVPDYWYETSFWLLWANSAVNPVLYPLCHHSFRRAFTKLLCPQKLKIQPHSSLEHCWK
UniProt Q9Y5N1, 1-365 isoform Q9Y5N1-3: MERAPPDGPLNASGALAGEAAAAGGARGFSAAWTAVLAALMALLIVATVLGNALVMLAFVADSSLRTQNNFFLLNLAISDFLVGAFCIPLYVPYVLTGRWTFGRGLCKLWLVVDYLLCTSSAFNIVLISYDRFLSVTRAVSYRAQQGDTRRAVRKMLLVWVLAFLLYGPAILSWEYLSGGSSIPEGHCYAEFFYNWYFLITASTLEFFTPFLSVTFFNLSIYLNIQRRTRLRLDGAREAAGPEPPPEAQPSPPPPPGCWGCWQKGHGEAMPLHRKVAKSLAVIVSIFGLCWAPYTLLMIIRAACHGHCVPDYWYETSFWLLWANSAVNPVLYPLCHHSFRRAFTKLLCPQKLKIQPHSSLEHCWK

Legend:
H3R-415 = H3R-415 (Homo sapiens, UniProt Q9Y5N1); test: cell-based; design: species or system HEK293-EPAC stably expressing H3R isoform
H3R-413 = H3R-413 (Homo sapiens, UniProt Q9Y5N1, DEL274-305); test: biochemical
H3R-365 = H3R-365 (Homo sapiens, UniProt Q9Y5N1); test: biochemical
H3R-373 = H3R-373 (Homo sapiens, UniProt Q9Y5N1, INS445KMKKKTCL)

SMILES: NC(=NCc1ccc(Cl)cc1)SCCCc1cnc[nH]1 [clobenpropit, N’-[(4-chlorophenyl)methyl]-1-[3-(3H-imidazol-4-yl)propylsulfanyl]methanimidamide]
- EC50 (H3R-415): 0.2 nM
- Ki (H3R-413): 0.631 nM
- Ki (H3R-365): 1.26 nM
- Ki (H3R-373): 1 nM
